This experiment deals with human TRPA1 (Homo sapiens, UniProt O75762). Description: Cell-based functional intracellular calcium ([Ca2+]i) assay, Fluo-4/Fluo-8, FlexStation, challenge with reference TRPA1 agonist (FFA, AITC or 4-HNE). The note with it: read-out: human TRPA1-HEK Activity; HEK293 cells expressing human TRPA1; IC50 class after addition of reference TRPA1 agonist (FFA, AITC or 4-HNE).

Protein sequences, listed by entry. Tags and fused reporters are not part of them.
UniProt O75762, whole entry: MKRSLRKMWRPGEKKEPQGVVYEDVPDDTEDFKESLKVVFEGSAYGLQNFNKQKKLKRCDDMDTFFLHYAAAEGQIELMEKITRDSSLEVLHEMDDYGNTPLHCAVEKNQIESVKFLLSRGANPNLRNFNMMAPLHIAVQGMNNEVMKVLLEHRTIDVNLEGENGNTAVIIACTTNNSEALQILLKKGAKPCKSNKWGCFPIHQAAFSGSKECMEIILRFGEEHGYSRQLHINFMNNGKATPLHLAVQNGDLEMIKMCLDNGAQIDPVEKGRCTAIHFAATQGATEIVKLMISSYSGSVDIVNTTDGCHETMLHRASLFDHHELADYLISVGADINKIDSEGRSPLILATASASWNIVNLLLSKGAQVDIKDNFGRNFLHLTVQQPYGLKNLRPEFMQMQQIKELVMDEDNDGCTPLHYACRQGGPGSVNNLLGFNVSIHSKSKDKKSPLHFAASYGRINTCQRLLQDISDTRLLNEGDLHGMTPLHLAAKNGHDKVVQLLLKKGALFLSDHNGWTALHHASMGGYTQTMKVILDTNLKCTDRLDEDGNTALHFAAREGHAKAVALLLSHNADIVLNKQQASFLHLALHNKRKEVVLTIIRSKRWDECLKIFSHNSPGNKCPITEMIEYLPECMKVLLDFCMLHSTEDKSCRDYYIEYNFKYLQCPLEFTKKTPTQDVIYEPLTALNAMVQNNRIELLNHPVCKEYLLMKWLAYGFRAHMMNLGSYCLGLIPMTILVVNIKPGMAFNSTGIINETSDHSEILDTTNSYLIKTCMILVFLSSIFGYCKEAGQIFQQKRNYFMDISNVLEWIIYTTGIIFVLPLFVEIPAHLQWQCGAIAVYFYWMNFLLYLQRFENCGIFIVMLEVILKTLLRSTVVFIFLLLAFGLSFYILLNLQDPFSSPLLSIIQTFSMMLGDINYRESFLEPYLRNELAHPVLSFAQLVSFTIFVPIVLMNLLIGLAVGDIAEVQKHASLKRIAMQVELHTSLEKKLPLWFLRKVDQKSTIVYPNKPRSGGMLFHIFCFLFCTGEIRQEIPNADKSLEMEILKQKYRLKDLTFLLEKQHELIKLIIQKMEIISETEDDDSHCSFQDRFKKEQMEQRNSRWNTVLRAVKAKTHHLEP

For the compound `O=C(c1cc(-c2cccnc2)n(-c2ccc(F)c(C(F)(F)F)c2)n1)N1CCC2(CC1)C(=O)NCN2c1ccc(F)cc1`, the IC50 was 1 to 5000 nM.

Take `O=C(c1cc(-c2cccnc2)n(-c2cc(F)c(F)c(F)c2)n1)N1CCC(n2c(=S)[nH]c3ccc(F)c(F)c32)CC1`: the IC50 fell in the range of 1 to 5000 nM.

Source of the values: US9951046B2, “TRPA1 modulators” (Algomedix, Inc., priority 2014, dated 2018).
